The numbers were not newly measured in publication PMC6832932, “Design and Selection of Novel C1s Inhibitors by In Silico and In Vitro Approaches” (Molecules, 2019), which cites them from elsewhere.

The target in the series is Factor Xa. Set-up: method as in PMID 18624979. Particulars: ref [50]; cited from earlier work.

Turning to `CN1CCc2nc(C(=O)N[C@@H]3C[C@@H](C(=O)N(C)C)CC[C@@H]3NC(=O)C(=O)Nc3ccc(Cl)cn3)sc2C1` [Edoxaban], the Ki was 0.561 nM.

Usually Ki stands for the equilibrium dissociation constant of an inhibitor or competing ligand from its target.
